The entries are a selection whose mix differs from that of the whole data set. Activity calls are given as the source filed them.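 How the source made its calls: active means Hck-Nef kinase inhibition above about 50% (limit read from the data); inactive means inhibition below that limit.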
target: Tyrosine-protein kinase HCK (Homo sapiens) (UniProt P08631); experiment: inhibitors of Nef-activated human Hck kinase, primary screen, biochemical, Z-Lyte FRET, 384-well, Hck-YEEI (AID 463187); settings: Recombinant Hck-YEEI plus Nef, Z-Lyte FRET kinase assay; at 20 µM; active compounds read high;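 further: 0% = DMSO with Hck plus Nef and 100% = Hck alone without Nef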

Protein sequences, listed by entry. Tags and fused reporters are not part of them.
UniProt P08631, whole entry, looked up: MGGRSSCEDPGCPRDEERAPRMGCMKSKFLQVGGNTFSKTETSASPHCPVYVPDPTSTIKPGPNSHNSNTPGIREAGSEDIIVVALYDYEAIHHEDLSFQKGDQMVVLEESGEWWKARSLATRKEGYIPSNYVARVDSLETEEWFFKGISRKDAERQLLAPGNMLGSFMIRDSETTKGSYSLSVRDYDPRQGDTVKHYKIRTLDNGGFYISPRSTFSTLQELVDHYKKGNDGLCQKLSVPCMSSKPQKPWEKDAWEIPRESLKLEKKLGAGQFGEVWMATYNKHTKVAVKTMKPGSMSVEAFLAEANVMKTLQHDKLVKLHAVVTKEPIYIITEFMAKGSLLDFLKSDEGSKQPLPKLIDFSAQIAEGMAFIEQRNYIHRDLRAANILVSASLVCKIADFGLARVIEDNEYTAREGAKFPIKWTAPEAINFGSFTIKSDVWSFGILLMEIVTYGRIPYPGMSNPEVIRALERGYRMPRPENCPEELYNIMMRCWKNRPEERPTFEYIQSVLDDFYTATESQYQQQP

SMILES | inhibition
O=C(O)c1cccc(Nc2c([N+](=O)[O-])cc([N+](=O)[O-])cc2[N+](=O)[O-])c1 | inactive: 10%
CC1=NCCc2c1[nH]c1ccccc21.O=[N+]([O-])c1cc([N+](=O)[O-])c(O)c([N+](=O)[O-])c1 | inactive: -1.5%
Cc1cc(C)cc(OP(C)(=O)Nc2ccc(C)cc2C)c1 (stereo not drawn) | inactive: 0.969%
CCOC(=O)c1ccc(NP(C)(=O)Oc2cc(C)cc(C)c2)cc1 (stereo not drawn) | inactive: 0.221%
COc1ccccc1OP(C)(=O)Nc1cccc(Br)c1 (stereo not drawn) | inactive: 13.3%
Cc1cc(C)cc(OP(C)(=O)Nc2ccccn2)c1 (stereo not drawn) | inactive: -8.8%
CP(=O)(Nc1cccc(Br)c1)Oc1ccccc1 (stereo not drawn) | inactive: -3.06%
Cc1ccc(C)c(NP(C)(=O)Oc2ccccc2)c1 (stereo not drawn) | inactive: 1.74%
O=[N+]([O-])c1cc([N+](=O)[O-])c(-n2nnc3ccccc32)c([N+](=O)[O-])c1 | inactive: 36.4%
Cc1nc2ccc3ccccc3c2s1.O=[N+]([O-])c1cc([N+](=O)[O-])c(O)c([N+](=O)[O-])c1 | inactive: 1.41%
O=[N+]([O-])c1cc([N+](=O)[O-])c(Nc2nnnn2CCO)c([N+](=O)[O-])c1 | inactive: 24.7%
CCOC(=O)C(CC)C1=NC(C)(C)Cc2ccccc21.O=[N+]([O-])c1cc([N+](=O)[O-])c(O)c([N+](=O)[O-])c1 (stereo not drawn) | inactive: 9.59%
CCCOc1ccc(NP(C)(=O)Oc2ccc(Cl)cc2)cc1 (stereo not drawn) | inactive: 17.2%
CP(=O)(Nc1ccc(SC(F)(F)F)cc1)Oc1ccccc1 (stereo not drawn) | inactive: 2.99%
CN1CCCCC1COC(=O)C1(O)c2ccccc2CCc2ccccc21 (stereo not drawn) | inactive: 5.85%
COc1ccccc1OP(C)(=O)Nc1c(C)cccc1C (stereo not drawn) | inactive: 0.941%
COc1ccccc1OP(C)(=O)Nc1ccccc1 (stereo not drawn) | inactive: 8.44%
CP(=O)(Nc1ccccc1Br)Oc1ccccc1 (stereo not drawn) | inactive: -1.89%
CP(=S)(Nn1cnnc1)Oc1ccccc1 (stereo not drawn) | inactive: 2.07%
CP(=O)(NC(=O)Nc1ccccc1)Oc1ccccc1 (stereo not drawn) | inactive: -0.112%
CCc1ccc(OP(C)(=O)N2CCN(c3ccc([N+](=O)[O-])cc3)CC2)cc1 (stereo not drawn) | inactive: 6.13%

SMILES | inhibition
Cc1cc(C)cc(OP(C)(=O)Nc2ccc(SC(F)(F)F)cc2)c1 (stereo not drawn) | inactive: -0.436%
CP(=O)(Nc1ccc(SC(F)(F)F)cc1)Oc1ccc(Cl)cc1 (stereo not drawn) | inactive: 21.4%
Cc1cccc(C)c1OP(C)(=O)Nc1ccc(SC(F)(F)F)cc1 (stereo not drawn) | inactive: 1.18%
CP(=O)(Oc1ccccc1)OC(c1ccccc1)C(F)(F)F (stereo not drawn) | inactive: 18.9%
CP(=O)(Nc1ccccn1)Oc1ccc(Cl)cc1 (stereo not drawn) | inactive: 2.57%
CCOP(C)(=S)SCC(=O)NC(C)C(=O)O (stereo not drawn) | inactive: -8.91%
CCOC(=O)c1ccc(NP(C)(=O)Oc2ccc(OC)cc2)cc1 (stereo not drawn) | inactive: 2.59%
CCN(CC)CCCOC(=O)C(O)(c1ccccc1)c1ccccc1 | inactive: 18.9%
CC(C)(C)c1ccc(OP(C)(=O)Nc2ccc(SC(F)(F)F)cc2)cc1 (stereo not drawn) | inactive: 1.37%
Cc1cccc(C)c1OP(C)(N)=O (stereo not drawn) | inactive: -3.85%
O=[N+]([O-])c1ccc2c(c1)C=Nc1ccccc1O2 | inactive: 19.5%
COc1ccccc1OP(C)(=O)Nc1cc(Cl)ccc1C (stereo not drawn) | inactive: 20.1%
COc1ccc(OP(C)(=O)Nc2cccc(F)c2)cc1 (stereo not drawn) | inactive: 3.83%
Cc1cc(C)cc(OP(C)(N)=O)c1 (stereo not drawn) | inactive: 20.5%
CCOC(=O)c1ccc(NP(C)(=O)Oc2ccccc2)cc1 (stereo not drawn) | inactive: 6.08%
COc1ccccc1OP(C)(=O)Nc1ccc(C)cc1 (stereo not drawn) | inactive: -2.08%
Cc1ccc(NP(C)(=O)Oc2ccccc2)c(C)c1 (stereo not drawn) | inactive: -3.65%
COc1ccc(OP(C)(=O)Nc2ccccc2Br)cc1 (stereo not drawn) | inactive: 2.35%
COc1ccccc1OP(C)(=O)Nc1ccc(C)c(C)c1 (stereo not drawn) | inactive: 0.416%
Cc1cc(C)cc(OP(C)(=O)Nc2cccc(C(F)(F)F)c2)c1 (stereo not drawn) | inactive: 21.8%
CP(=O)(Nc1ccc(Cl)cc1Cl)Oc1ccccc1 (stereo not drawn) | inactive: 17.9%

SMILES | inhibition
CP(=O)(OCCOc1ccccc1)OCCOc1ccccc1 | inactive: -0.672%
Cc1nc2ccc3ccccc3c2o1.O=[N+]([O-])c1cc([N+](=O)[O-])c(O)c([N+](=O)[O-])c1 | inactive: 1.77%
CN(C)CCOC(=O)C(O)(c1ccccc1)C1CCCC1 (stereo not drawn) | inactive: 1.79%
COc1ccc(OP(C)(=O)Nc2ccccn2)cc1 (stereo not drawn) | inactive: -0.706%
COc1ccccc1OP(C)(=O)Nc1ccc(Br)cc1 (stereo not drawn) | inactive: 10.7%
CCc1ccc(OP(C)(=O)O)cc1 | inactive: 1.28%
CP(=O)(Nc1ccccn1)Oc1ccccc1 (stereo not drawn) | inactive: -0.252%
COc1ccccc1OP(C)(=O)Nc1ccc(C)cc1C (stereo not drawn) | inactive: -1.96%
Cc1c(NP(C)(=O)Oc2ccc(C(C)C)cc2)c(=O)n(-c2ccccc2)n1C (stereo not drawn) | inactive: 1.2%
O=[N+]([O-])c1cc([N+](=O)[O-])c(Nc2ccccn2)c([N+](=O)[O-])c1 | inactive: 18.7%
CP(=O)(Oc1ccccc1)N1CCOC1=O (stereo not drawn) | inactive: 0.148%
CCc1ccc(OP(C)(=O)Nc2cccnc2)cc1 (stereo not drawn) | inactive: -13.8%
COc1ccccc1OP(C)(=O)Nc1c(C)n(C)n(-c2ccccc2)c1=O (stereo not drawn) | inactive: -0.89%
O=C(OCCCN1CCCC1)C(O)(c1ccccc1)C1CCCCC1 (stereo not drawn) | inactive: 14.2%
CCN(CC)CC(O)COC(=O)C(O)(c1ccccc1)C1CCCCC1 (stereo not drawn) | inactive: 2.36%
COc1ccc(OP(C)(=O)Nc2ccc(Br)cc2)cc1 (stereo not drawn) | inactive: -0.0369%
CN(C)C(=O)c1c([N+](=O)[O-])cc([N+](=O)[O-])cc1[N+](=O)[O-] | inactive: 23.2%
CP(=O)(Nc1ccc(Cl)cc1)Oc1ccc(F)cc1 (stereo not drawn) | inactive: 0.413%
COc1ccccc1OP(C)(=O)Nc1ccccc1Br (stereo not drawn) | inactive: 26.3%
CC(C)(C)c1ccc(OP(C)(=O)O)cc1 | inactive: -18.3%
CP(=O)(OC12CC3CC(CC(C3)C1)C2)OC12CC3CC(CC(C3)C1)C2 | inactive: 2.6%

Reference: PubChem BioAssay AID463187 (University of Pittsburgh Molecular Library Screening Center, 2010)
